Measured values published in patent US9604989B2, “Imidazopyridazines as Akt kinase inhibitors” (Bayer Intellectual Property GmbH, priority 2011, dated 2017).
Where a name gives a salt, the structure may show the parent alone.

The chains behind the UniProt entries cited, without tags or fusion partners. Where a name states a change or a piece, a line headed by the entry shows the natural chain unless it says otherwise.
UniProt P31751: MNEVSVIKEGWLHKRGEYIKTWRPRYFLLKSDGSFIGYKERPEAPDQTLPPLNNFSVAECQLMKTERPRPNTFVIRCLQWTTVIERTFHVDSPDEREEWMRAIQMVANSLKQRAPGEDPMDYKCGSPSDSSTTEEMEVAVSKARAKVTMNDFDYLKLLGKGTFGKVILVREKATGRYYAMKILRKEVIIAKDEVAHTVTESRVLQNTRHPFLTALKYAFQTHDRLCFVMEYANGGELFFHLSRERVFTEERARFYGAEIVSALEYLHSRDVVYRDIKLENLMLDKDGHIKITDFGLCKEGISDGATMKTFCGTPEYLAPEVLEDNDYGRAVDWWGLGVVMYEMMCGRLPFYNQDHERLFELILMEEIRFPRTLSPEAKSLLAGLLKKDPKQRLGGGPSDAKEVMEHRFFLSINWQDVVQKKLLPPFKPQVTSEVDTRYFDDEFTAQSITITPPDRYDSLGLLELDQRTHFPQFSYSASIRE
UniProt P31749: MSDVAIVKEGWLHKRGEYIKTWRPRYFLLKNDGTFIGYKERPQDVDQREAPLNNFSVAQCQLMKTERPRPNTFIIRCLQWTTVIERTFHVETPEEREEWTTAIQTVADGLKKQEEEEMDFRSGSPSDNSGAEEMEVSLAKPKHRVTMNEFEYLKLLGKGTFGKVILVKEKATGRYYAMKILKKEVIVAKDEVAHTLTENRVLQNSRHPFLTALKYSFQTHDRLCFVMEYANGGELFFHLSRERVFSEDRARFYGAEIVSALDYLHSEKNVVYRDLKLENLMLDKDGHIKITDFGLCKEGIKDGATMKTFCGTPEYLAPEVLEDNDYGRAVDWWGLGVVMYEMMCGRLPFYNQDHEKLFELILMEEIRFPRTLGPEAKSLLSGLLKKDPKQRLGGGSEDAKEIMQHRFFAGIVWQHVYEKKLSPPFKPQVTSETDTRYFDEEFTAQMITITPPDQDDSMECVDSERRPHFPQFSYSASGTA

Columns and labels:
[1] = target: His-tagged human recombinant kinase full-length Akt2 (Homo sapiens (Human), UniProt P31751); experiment: Akt2 kinase assay (Akt2 TR-FRET assay); assay type: biochemical; conditions: 10 μM ATP, 60 min at 22° C., read-out: Akt2 median IC50
phospho-AKT at S473 = experiment: Cellular p-AKT1/2/3-S473 assay in KPL-4 cells; assay type: cell-based; conditions: Homo sapiens, KPL4; KPL-4 breast tumour cell line, compound treatment 2 hours; read-out: pAKT-S473 median IC50
[2] = target: His-tagged human recombinant kinase full-length Akt1 (Homo sapiens (Human), UniProt P31749); experiment: Akt1 kinase assay (Akt1 TR-FRET assay); assay type: biochemical; conditions: 10 μM ATP, 60 min at 22° C., read-out: Akt1 median IC50

Compound	IC50 [1]	IC50 (phospho-AKT at S473)	IC50 [2]
COc1cc(-c2cn[nH]c2)c2nc(-c3ccc(C4(N)CCC4)cc3)c(-c3ccccc3)n2n1 [Example 15, 1-{4-[6-Methoxy-3-phenyl-8-(1H-pyrazol-4-yl)imidazo[1,2-b]pyridazin-2-yl]phenyl} cyclobutanamine HCl salt]	56 nM		
NC1(c2ccc(-c3nc4c(-c5ncc[nH]5)cc(Cl)nn4c3-c3ccccc3)cc2)CCC1 [Example 24, 1-{4-[6-Chloro-8-(1H-imidazol-2-yl)-3-phenyl-imidazo[1,2-b]pyridazin-2-yl]phenyl} cyclobutanamine]	81 nM		
NC1(c2ccc(-c3nc4c(O)ccnn4c3-c3ccccc3)cc2)CCC1 [Example 32, 2-[4-(1-Aminocyclobutyl)phenyl]-3-phenylimidazo[1,2-b]pyridazin-8-ol]			3700 nM
Nc1ccc2nc(-c3ccc(C4(N)CCC4)cc3)c(-c3ccccc3)n2n1 [Example 35, 2-[4-(1-Aminocyclobutyl)phenyl]-3-phenylimidazo[1,2-b]pyridazin-6-amine]			350 nM
CSc1ccc2nc(-c3ccc(C4(N)CCC4)cc3)c(-c3ccccc3)n2n1 [Example 36, 1-{4-[6-(Methylsulfanyl)-3-phenylimidazo[1,2-b]pyridazin-2-yl]phenyl}cyclobutanamine]	54 nM		
CS(=O)(=O)c1ccc2nc(-c3ccc(C4(N)CCC4)cc3)c(-c3ccccc3)n2n1 [Example 38]	140 nM		
NC1(c2ccc(-c3nc4ccc(NC(=O)C(F)(F)F)nn4c3-c3ccccc3)cc2)CCC1 [Example 40, N-{2-[4-(1-Aminocyclobutyl)phenyl]-3-phenylimidazo[1,2-b]pyridazin-6-yl}-2,2,2-trifluoroacetamide]	1400 nM		1700 nM
NC1(c2ccc(-c3nc4c(-c5ccc(F)cc5)ccnn4c3-c3ccccc3)cc2)CCC1 [Example 44, 1-{4-[8-(4-Fluorophenyl)-3-phenylimidazo[1,2-b]pyridazin-2-yl]phenyl}cyclobutanamine]			190 nM
NC1(c2ccc(-c3nc4c(C5CC5)cc(Cl)nn4c3-c3ccccc3)cc2)CCC1 [Example 46, 1-[4-(6-Chloro-8-cyclopropyl-3-phenylimidazo [1,2-b]pyridazin-2-yl)phenyl]cyclobutanamine]			110 nM
CCCc1ccnn2c(-c3ccccc3)c(-c3ccc(C4(N)CCC4)cc3)nc12 [Example 47, 1-[4-(3-Phenyl-8-propylimidazo[1,2-b]pyridazin-2-yl)phenyl]cyclobutanamine]	350 nM		
Nc1ccnn2c(-c3ccccc3)c(-c3ccc(C4(N)CCC4)cc3)nc12 [Example 48, 2-[4-(1-Aminocyclobutyl)phenyl]-3-phenylimidazo[1,2-b]pyridazin-8-amine]			180 nM
CN(C)C(=O)c1ccc2nc(-c3ccc(C4(N)CCC4)cc3)c(-c3ccccc3)n2n1 [Example 69, 2-[4-(1-Aminocyclobutyl)phenyl]-N,N-dimethyl-3-phenylimidazo[1,2-b]pyridazine-6-carboxamide]	750 nM		
NC1(c2ccc(-c3nc4ccc(C(=O)NCCO)nn4c3-c3ccccc3)cc2)CCC1 [Example 70, 2-[4-(1-Aminocyclobutyl)phenyl]-N-(2-hydroxyethyl)-3-phenylimidazo[1,2-b]pyridazine-6-carboxamide]			130 nM
COc1cc(-c2ccnn2C)c2nc(-c3ccc(C4(N)CCC4)cc3)c(-c3ccccc3)n2n1 [Example 74, 1-{4-[6-Methoxy-8-(1-methyl-1H-pyrazol-5-yl)-3-phenylimidazo[1,2-b]pyridazin-2-yl]phenyl}cyclobutanamine]	120 nM		

The remaining lines, values ahead:

IC50 [1]	IC50 (phospho-AKT at S473)	IC50 [2]	Compound
38 nM			COC(=O)c1cc(OC)c2nc(-c3ccc(C4(N)CCC4)cc3)c(-c3ccccc3)n2n1 [Example 12, Methyl 2-[4-(1-aminocyclobutyl)phenyl]-8-methoxy-3-phenylimidazo[1,2-b]pyridazine-6-carboxylate]
	82 nM	78 nM	CCc1cc(OC)c2nc(-c3ccc(C4(N)CCC4)cc3)c(-c3ccccc3)n2n1 [Example 13, 1-[4-(6-Ethyl-8-methoxy-3-phenylimidazo[1,2-b]pyridazin-2-yl)phenyl]cyclobutanamine]
18 nM			CCOc1cc(C(=O)NC)nn2c(-c3ccccc3)c(-c3ccc(C4(N)CCC4)cc3)nc12 [Example 22, 2-[4-(1-Aminocyclobutyl)phenyl]-8-ethoxy-N-methyl-3-phenylimidazo[1,2-b]pyridazine-6-carboxamide]
		6.3 nM	CNC(=O)c1cc(OC)c2nc(-c3ccc(C4(N)CCC4)cc3)c(-c3ccccc3)n2n1 [Example 26, 2-[4-(1-Aminocyclobutyl)phenyl]-8-methoxy-N-methyl-3-phenylimidazo[1,2-b]pyridazine-6-carboxamide]
5.4 nM		5 nM	COCCOc1cc(C(N)=O)nn2c(-c3ccccc3)c(-c3ccc(C4(N)CCC4)cc3)nc12 [Example 28, 2-[4-(1-Aminocyclobutyl)phenyl]-8-(2-methoxy-ethoxy)-3-phenylimidazo[1,2-b]pyridazine-6-carboxamide]
		48 nM	COC(=O)c1ccnn2c(-c3ccccc3)c(-c3ccc(C4(N)CCC4)cc3)nc12 [Example 31, Methyl 2-[4-(1-aminocyclobutyl)phenyl]-3-phenylimidazo[1,2-b]pyridazine-8-carboxylate]
		3.9 nM	NC(=O)c1cc(C(N)=O)c2nc(-c3ccc(C4(N)CCC4)cc3)c(-c3ccccc3)n2n1 [Example 34, 2-[4-(1-Aminocyclobutyl)phenyl]-3-phenylimidazo[1,2-b]pyridazine-6,8-dicarboxamide]
110 nM			CC(=O)c1ccc2nc(-c3ccc(C4(N)CCC4)cc3)c(-c3ccccc3)n2n1 [Example 43, 1-{2-[4-(1-Aminocyclobutyl)phenyl]-3-phenylimidazo[1,2-b]pyridazin-6-yl}ethanone]
24 nM			NC(=O)c1cc(-c2cc[nH]n2)c2nc(-c3ccc(C4(N)CCC4)cc3)c(-c3ccccc3)n2n1 [Example 60, 2-[4-(1-Aminocyclobutyl)phenyl]-3-phenyl-8-(1H-pyrazol-3-yl)imidazo[1,2-b]pyridazine-6-carboxamide]
		4.8 nM	CNC(=O)c1cc(OCC2CC2)c2nc(-c3ccc(C4(N)CCC4)cc3)c(-c3ccccc3)n2n1 [Example 64, 2-[4-(1-Aminocyclobutyl)phenyl]-8-(cyclopropylmethoxy)-N-methyl-3-phenylimidazo[1,2-b]pyridazine-6-carboxamide]
		51 nM	CCNC(=O)c1ccc2nc(-c3ccc(C4(N)CCC4)cc3)c(-c3ccccc3)n2n1 [Example 66, 2-[4-(1-Aminocyclobutyl)phenyl]-N-ethyl-3-phenylimidazo[1,2-b]pyridazine-6-carboxamide]
